From PubChem BioAssay AID652048 (National Center for Advancing Translational Sciences (NCATS), 2013)
Only a part is listed here, and it is no random draw. The source made the active and inactive calls. No stated cut-off is given here; in the data, active means max activation above about 30%; inactive means the rest.

The chains behind the UniProt entries cited, without tags or fusion partners.
UniProt P35462, whole entry, looked up: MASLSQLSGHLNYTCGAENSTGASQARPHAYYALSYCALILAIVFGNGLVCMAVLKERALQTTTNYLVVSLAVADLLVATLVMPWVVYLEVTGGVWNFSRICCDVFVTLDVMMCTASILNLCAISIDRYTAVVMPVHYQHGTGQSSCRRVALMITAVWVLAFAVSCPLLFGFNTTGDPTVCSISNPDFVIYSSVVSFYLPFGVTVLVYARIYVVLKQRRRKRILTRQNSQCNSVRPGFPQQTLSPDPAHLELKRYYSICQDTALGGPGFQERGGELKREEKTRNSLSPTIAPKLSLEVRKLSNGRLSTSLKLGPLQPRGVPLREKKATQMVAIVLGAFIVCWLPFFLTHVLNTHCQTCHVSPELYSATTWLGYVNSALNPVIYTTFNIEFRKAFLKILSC

Each molecule was assayed against D(3) dopamine receptor (Homo sapiens) (UniProt P35462) (assay: qHTS of D3 Dopamine Receptor Agonist: qHTS). Conditions: D3R DiscoveRx beta-arrestin cells, luminescence, 90 min; hits give high values.
Description: D3 DARs represent a very important target for the treatment of several neuropsychiatric disorders. Indeed, one of the most promising therapeutic applications for the D3 DAR is in the area of addiction and related disorders. […] These findings have been observed with a number of addictive substances including cocaine, amphetamine, nicotine, and alcohol. […] Antagonism of the D3 DAR may also be therapeutic in the treatment of schizophrenia or psychosis. […] Since the D3 DAR is expressed in areas of the CNS associated with the control of mood and emotion, it has been hypothesized that selective antagonism of the D3 DAR may be effective in treating psychosis without inducing the motor side effects typically seen with D2 DAR antagonists.
This part of the project aims to discover novel agonist.
NIH Chemical Genomics Center [NCGC]
NIH Molecular Libraries Probe Centers Network [MLPCN]
Assay Submitter (PI): David Sibley, NINDS
Freshly passaged cells are plated in 1536 well white, solid bottom plates at a density of 1500 cells/well in 3microl of complete media. After an overnight incubation at 37 degrees C in 5% CO2, cells are loaded with 23nl of test compound from the compound library (as well as dopamine controls) using a 1536 pintool and incubated at 37 degrees C for 90 minutes. Two microliters of DiscoveRx reagent is then added to all cells, and they are incubated for an additional 30 - 60 minutes at room temperature. Following incubation, luminescence is measured on a ViewLux CCD-based luminometer reader using a 20 sec exposure time.
Further: 0% is about no effect.

Q: For O=[As](O)(c1cccc(O)c1)c1cccc(O)c1, which max activation is on record?
A: Its max activation is inactive: 3.79%.

Q: How did the max activation turn out when O=[As](O)(O)c1cccnc1 was run?
A: The max activation was inactive: 7.8%.

Q: How did the max activation turn out when COc1cc(C(=O)NCC2(N3CCOCC3)CCCCC2)cc(Cl)c1OC(C)C was run?
A: The max activation was inactive: -1.11%.

Q: How did the max activation turn out when CS(=O)(=O)c1ccc(Cl)c(NC(=O)COC(=O)C(O)(c2ccccc2)c2ccccc2)c1 was run?
A: Its max activation is inactive: 2.11%.

Q: How did the max activation turn out when O=C(OC1CN2CCC1CC2)c1ccc(Cl)cc1 (centres undefined) was run?
A: Its max activation is inactive: -2.95%.

Q: CC1(CBr)Cn2c(nc3ccccc3c2=O)S1 (centres undefined) was tested. Which max activation did it give?
A: The max activation was inactive: 0.761%.

Q: With CC(C)/C=N\N=C(\N)N[N+](=O)[O-] as the molecule, how does the max activation read?
A: Its max activation is inactive: -9.33%.

Q: How did the max activation turn out when CN(C(=O)Cc1ccc(Cl)c(Cl)c1)[C@@H]1CCCC[C@H]1N1CCCC1 was run?
A: The max activation was inactive: -54.2%.

Q: COc1ccccc1CNC(=O)COC(=O)C(O)(c1ccccc1)c1ccccc1 was tested. Which max activation did it give?
A: The max activation was inactive: 2.81%.

Q: How did the max activation turn out when O=P1(N(CCCl)CCCl)NCCC(C(F)(F)F)O1 (centres undefined) was run?
A: Its max activation is inactive: 7.18%.

Q: How did the max activation turn out when Clc1n[nH]nc1-c1nn[nH][15n]1 was run?
A: The max activation was inactive: -6.66%.

Q: How did the max activation turn out when CC(C)(C)C(=O)NC(Sc1ncccn1)C(Cl)(Cl)Cl (centres undefined) was run?
A: Its max activation is inactive: 4.29%.

Q: How did the max activation turn out when CCOP(=O)(Nc1ccc(C)cn1)OCC was run?
A: The max activation was inactive: -3.25%.

Q: CN(CCCl)Cc1cc(Cl)c(NC2=NCCN2)c(Cl)c1 was tested. Which max activation did it give?
A: Its max activation is inactive: -5.42%.

Q: O=P1(Nc2ccccn2)COc2ccccc2OC1 was tested. Which max activation did it give?
A: The max activation was inactive: 0.126%.

Q: CCC1=CC2Cc3nc4ccc(Cl)cc4c(N)c3C(C1)C2 (centres undefined) was tested. Which max activation did it give?
A: Its max activation is inactive: -5.11%.

Q: CCOP(=O)(NC(=NC(C)c1ccccc1)NC(C)c1ccccc1)OCC (centres undefined) was tested. Which max activation did it give?
A: The max activation was inactive: 4.19%.

Q: With O=[As](O)(c1cccs1)c1cccs1 as the molecule, how does the max activation read?
A: The max activation was inactive: -0.341%.

Q: Which max activation does the source give for Cc1ccc(OCC(=O)OC2CN3CCC2CC3)cc1 (centres undefined) here?
A: The max activation was inactive: 1.66%.

Q: Which max activation does the source give for O=P1(Nc2ccc(Br)cn2)COc2ccccc2OC1 here?
A: The max activation was inactive: 0.359%.

Q: With NS(=O)(=O)c1cccc(NC(=O)COC(=O)C(O)(c2ccccc2)c2ccccc2)c1 as the molecule, how does the max activation read?
A: The max activation was inactive: 2.34%.

Q: Which max activation does the source give for Nc1cccc([As](=O)(O)c2ccccc2)c1 here?
A: The max activation was inactive: 6.79%.

Q: With O=P1(Nc2ncccn2)COc2ccccc2OC1 as the molecule, how does the max activation read?
A: The max activation was inactive: 0.977%.

Q: Cc1ccc(S(=O)(=O)N(CCCN)CCCc2c(C)nc(N)[nH]c2=O)cc1 was tested. Which max activation did it give?
A: Its max activation is inactive: -18.1%.

Q: How did the max activation turn out when O=C(/C=C/c1ccccc1)OC1CN2CCC1CC2 (centres undefined) was run?
A: The max activation was inactive: -16.7%.

Q: Which max activation does the source give for CCCC1OP(=O)(Nc2ccccc2)OCC1CC (centres undefined) here?
A: The max activation was inactive: -5.76%.

Q: For CN(C)C1(CNC(=O)c2ccc(S(C)(=O)=O)cc2)CCCCC1, which max activation is on record?
A: Its max activation is inactive: 5.08%.

Q: Cc1nn(-c2ccccc2)c2c1P(=O)(N1CCOCC1)N(C)C(c1ccccc1)=N2 (centres undefined) was tested. Which max activation did it give?
A: Its max activation is inactive: -1.04%.

Q: For CC1CCC(C(C)C)C(OP(=O)(Nc2ccccn2)c2ccccc2)C1 (centres undefined), which max activation is on record?
A: Its max activation is inactive: 3.13%.

Q: Which max activation does the source give for Cc1ccc(C(=O)OC2CN3CCC2CC3)cc1 (centres undefined) here?
A: The max activation was inactive: 2.28%.

Q: Which max activation does the source give for C(Cc1nn[nH]n1)Cc1nn[nH]n1 here?
A: The max activation was inactive: 0.199%.

Q: Nc1ccc([As](=O)(O)c2ccc([N+](=O)[O-])cc2)cc1 was tested. Which max activation did it give?
A: The max activation was inactive: -22.3%.

Q: With O=C(OC1CN2CCC1CC2)c1cccc(Cl)c1 (centres undefined) as the molecule, how does the max activation read?
A: The max activation was inactive: 17.5%.

Q: O=[N+]([O-])c1ccc(O)c(/C=N/Nc2ccc([N+](=O)[O-])cc2[N+](=O)[O-])c1 was tested. Which max activation did it give?
A: The max activation was inactive: 17.1%.

Q: O=[N+]([O-])c1ncn(CCn2cnc([N+](=O)[O-])n2)n1 was tested. Which max activation did it give?
A: The max activation was inactive: -5.05%.

Q: Which max activation does the source give for CC(=O)NC(SC(=S)N(C)C)C(Cl)(Cl)Cl (centres undefined) here?
A: Its max activation is inactive: -8.53%.

Q: With O=[As](O)(c1ccccc1)c1ccc(O)cc1 as the molecule, how does the max activation read?
A: The max activation was inactive: -7.61%.

Q: For O=P(Nc1nc2ccccc2s1)(c1ccccc1)c1ccccc1, which max activation is on record?
A: The max activation was inactive: -9.83%.

Q: For C[C@H]1OP(=O)(Oc2ccccc2)[C@H](O)[C@H](O)[C@H]1N=[N+]=[N-] (some centres undefined), which max activation is on record?
A: Its max activation is inactive: 2.12%.

Q: Which max activation does the source give for Cc1cc([N+](=O)[O-])cc([N+](=O)[O-])c1O here?
A: Its max activation is inactive: 5.68%.

Q: With CN(C(=O)Cc1ccccc1)[C@H]1CC[C@@]2(CCCO2)C[C@@H]1N1CCCC1 as the molecule, how does the max activation read?
A: The max activation was inactive: -10.8%.

Q: Which max activation does the source give for COc1ccc(N)c([N+](=O)[O-])c1[N+](=O)[O-] here?
A: The max activation was inactive: 1.7%.

Q: For Nc1ccc(CCCCOc2ccccc2)cc1, which max activation is on record?
A: The max activation was inactive: -13.8%.

Q: Which max activation does the source give for O=P(Nc1ccccn1)(c1ccc(Br)cc1)c1ccc(Br)cc1 here?
A: Its max activation is inactive: -1.03%.

Q: Which max activation does the source give for CN(C)C1(CNC(=O)c2ccc(Cl)c(S(N)(=O)=O)c2)CCCCC1 here?
A: Its max activation is inactive: -2.65%.

Q: c1nnnn1CCn1cnnn1 was tested. Which max activation did it give?
A: Its max activation is inactive: -0.278%.

Q: With CC(C)C(=O)NC(Sc1ccccc1)C(Cl)(Cl)Cl (centres undefined) as the molecule, how does the max activation read?
A: The max activation was inactive: -23.2%.

Q: O=P(Nc1nccs1)(c1ccccc1)c1ccccc1 was tested. Which max activation did it give?
A: Its max activation is inactive: 6.7%.

Q: For CC(=O)Nc1ccc([As](=O)(O)O)c(O)c1, which max activation is on record?
A: Its max activation is inactive: 6.44%.

Q: Which max activation does the source give for CC(=O)Nc1ccc(Oc2c([N+](=O)[O-])cc([N+](=O)[O-])cc2[N+](=O)[O-])cc1 here?
A: Its max activation is inactive: -3.5%.

Q: CC(=O)c1ccc(N2CC2c2ccncc2)cc1 (centres undefined) was tested. Which max activation did it give?
A: The max activation was inactive: 4.39%.

Q: N#C/C(=C\c1ccc(N(CCBr)CCBr)cc1)C(N)=O was tested. Which max activation did it give?
A: The max activation was inactive: 2.43%.

Q: For COC(=O)C1(C)COP(=O)(NCc2ccccc2)OC1 (centres undefined), which max activation is on record?
A: Its max activation is inactive: 6.69%.

Q: How did the max activation turn out when Cc1ccccc1CN(C)C(=O)COC(=O)C(O)(c1ccccc1)c1ccccc1 was run?
A: The max activation was inactive: 8.37%.

Q: With C[C@H]1OP(=O)(Oc2ccccc2)C[C@@H]2O[C@@H]21 (some centres undefined) as the molecule, how does the max activation read?
A: Its max activation is inactive: 0.476%.

Q: For C[C@@H]1C=CCP(=O)(Oc2ccccc2)O1 (some centres undefined), which max activation is on record?
A: Its max activation is active: 43.7%.

Q: For CCc1cc(O)c([N+](=O)[O-])c(C)c1[N+](=O)[O-], which max activation is on record?
A: Its max activation is inactive: 5.51%.

Q: How did the max activation turn out when CC(C)(C)C(=O)NC(Sc1ccccc1)C(Cl)(Cl)Cl (centres undefined) was run?
A: Its max activation is inactive: -1.84%.

Q: Which max activation does the source give for O=P1(Nc2nc3ccc(Cl)cc3s2)COc2ccccc2O1 (centres undefined) here?
A: The max activation was inactive: 1.49%.
